Reference: patent publication US20240409505A1, “GLUCONAMIDE SULFATE SURFACTANTS” (The Procter & Gamble Company, priority 2023, published 2024)

Assay: Final product mixed with Deionized Water at room temperature
Conditions: 0.0130 g of final product mixed with 1.287 g of Deionized Water at room temperature
Text: Vacuum filtered solution through Grade 4 filter paper to obtain a clear, colorless solution. […] The solution was concentrated using a rotary evaporator until mixture began to foam, then solution was transferred to a glass crystallizing dish and placed in a vacuum oven at room temperature under a partial vacuum of 3 inches of Hg internal oven pressure.

Sodium (2R,3R,4S,5R)-6-((3-dodecyloxy) propyl)amino)-2,3,4,5-tetrahydroxy-6-oxohexyl sulfate [Example 6]
appearance of mixture with Deionized Water (solubility): completely clear, colorless solution that foamed when shaken
